Assay results published in article PMC4009755, “High-Throughput Screen of Natural Product Libraries for Hsp90 Inhibitors” (Biology, 2014).
Like-named read-outs stand apart in the source and are kept apart here.

System: Hsp90 chaperone machinery present in rabbit reticulocyte lysate
Assay: Hsp90-dependent refolding of thermally denatured luciferase in rabbit reticulocyte lysate (high-throughput screen and titration)
Format: biochemical
Experimental: Rabbit reticulocyte lysate, prepared by lysing one volume of packed reticulocytes in two volumes of deionized water, followed by centrifugation for twenty minutes at 15,000 × g, was purchased from Green Hectares (Oregon, WI, USA).
Recombinant luciferase from Promega was diluted to 0.5 mg/mL in buffer consisting of 25 mM Tricine–HCl (pH 7.8), 8 mM MgSO4, 0.1 mM EDTA, and 10 mg/mL acetylated BSA. Next, the solution was adjusted to include 10% glycerol and 1% Triton X-100. Finally, the luciferase solution was heated to ~41°. Once the activity of the luciferase reached ~1% of its initial value, the mixture was placed on ice, or flash frozen in liquid nitrogen and placed at −80° for storage.
To prepare the denatured luciferase for use in re-folding assays, 125 µL of the 0.5 mg/mL mixture was added into a 10 mL mixture containing 80 mM Tris HCl, pH 7.7, 8 mM Mg(OAc)2, 300 mM KCl, 12 mM ATP, and 20 mM creatine phosphate, and 0.8 mg/mL creatine phosphokinase.
The assay buffer, which contains the luciferase substrate luciferin, consisted of 75 mM Tricine-HCl, pH 7.8, 24 mM MgSO4, 300 µM EDTA, 2 mM DTT, 313 µM D-luciferin, 640 µM coenzyme A, 660 µM ATP, 150 mM KCl, 10% (v/v) Triton X-100, 20% (v/v) glycerol, and 3.5% DMSO.
The libraries were screened for compounds that inhibited the refolding of thermally denatured luciferase using a high-throughput assay carried out with a slight modification of the method previously described. Briefly, compounds were reconstituted in 100% DMSO. Stocks of compounds purchased from Microsource, TimTec, Biofocus and BioMol were reconstituted to a concentration of 1 mg/mL. The stocks were diluted 40-fold into nano-pure water with the compounds being used at a final concentration of 12.5 µg/mL for the assay. Analyticon compounds (0.2 µmol) were reconstituted to a concentration of 4 mM, and were used at a final concentration of 40 µM in the assay. Assays were performed in 96-well microplates. To each well was added 30 µL of the water/DMSO compound solution, 15 µL of the reticulocyte lysate preparation, and 15 µL of the luciferase reagent. The plates were agitated and then allowed to incubate at 25 °C for one to three hours. After the incubation, 60 µL of assay buffer containing luciferin was added to each well. The plates were then read in a Molecular Devices LMaxII^384 microplate reader, and luminescence was measured in relative light units, with an integration time of 10 s. Compounds that inhibited luciferase refolding by approximately fifty percent or greater were then titrated into a refolding reaction containing native luciferase, to eliminate false positive hits that were direct inhibitors of luciferase as previously described. Compounds were classified as a potential Hsp90 inhibitor if they inhibited luciferase refolding by 60% or greater and there was no inhibition of the activity of native luciferase at the compound’s IC50 (concentration of the compound that inhibits luciferase refolding by 50%).
To obtain an estimate of a compound’s IC50, the compounds were titrated into the assay mixture described above starting at a concentration of 25 µg/mL and a series of three-fold dilutions. The titrations were repeated twice. For a more accurate determination of the IC50s for the compounds studied in Section 3.2.1 of this manuscript, a two-fold […] series of the compounds were used in triplicate, with the experiment being repeated three times.

[1] = read-out: IC50 (µM), inhibition of luciferase refolding, estimate, titration from 25 µg/mL in three-fold dilutions, repeated twice, rabbit reticulocyte lysate

## CCCC[C@@H](C)/C=C(C)/C=C(\C)C(=O)NC1=C[C@@](O)(/C=C/C=C/C=C/C(=O)NC2=C(O)CCC2=O)[C@@H]2O[C@@H]2C1=O
[1]
  IC50: 30 to 50 µM

## C[n+]1cc2c3c(ccc2c2ccc4cc5c(cc4c21)OCO5)OCO3
[1]
  IC50: 70 µM

## Cc1cccc2c3c(ccc12)C1=C(C(=O)C3=O)[C@@H](C)CO1
[1]
  IC50: 80 µM

## COC1=C(OC)C2c3cc(OC)c(OC)cc3C(Cc3c4c5c(cc(OC)c(OC)c5c5cc(OC)c(OC)cc35)CCN4C)=C3C2C(=C1)CCN3C (stereo not shown)
[1]
  IC50: 0.1 to 0.4 µM

## CC1=C(CC/C(C)=C/CC/C(C)=C/CCC2=CC(=O)OC2O)C(C)(C)CCC1 (stereo not shown)
[1]
  IC50: 10 to 20 µM

## Phloretin
[1]
  IC50: 35 to 90 µM

## Cc1cc2c(C(C)C)c(O)c(O)c(C=O)c2c(O)c1-c1c(C)cc2c(C(C)C)c(O)c(O)c(C=O)c2c1O
[1]
  IC50: 50 µM

## COC1=C(N)C(=O)c2nc(-c3nc(C(=O)O)c(C)c(-c4ccc(OC)c(OC)c4O)c3N)ccc2C1=O
[1]
  IC50: 15 µM

## CC1OC(OC2CCC(OC3C(O)CC(c4ccc5c(c4O)C(=O)C4=C(C5=O)C5(O)C(=O)CC(C)(OC6CCC(OC7C=CC(=O)C(C)O7)C(C)O6)CC5(O)C=C4)OC3C)OC2C)C=CC1=O (stereo not shown)
[1]
  IC50: 100 µM

## CC1=C(O)C(=O)C=C2C1=CC=C1[C@@]2(C)CC[C@@]2(C)[C@@H]3C[C@](C)(C(=O)O)CC[C@]3(C)CC[C@]12C
[1]
  IC50: 2 µM

## COC1C=COC2(C)Oc3c(C)c(O)c4c(O)c(c(C=O)c(O)c4c3C2=O)NC(=O)C(C)=CC=CC(C)C(O)C(C)C(O)C(C)C(OC(C)=O)C1C (stereo not shown)
[1]
  IC50: 15 to 35 µM

## COc1cc2cc3c4c(cc(OC)c(OC)c4c2cc1OC)CCN3C
[1]
  IC50: 0.9 µM

## CCC1CCCCCCCCc2cc1c(/C=C1/N=C(c3ccc[nH]3)C=C1OC)[nH]2 (stereo not shown)
[1]
  IC50: 10 µM

## CC(=O)OC1C=CC=C2CC34SSC(CO)(C(=O)N3C21)N(C)C4=O (stereo not shown)
[1]
  IC50: 15 µM

## CO[C@H]1c2cc(C(C)C)c(O)c(O)c2[C@@]23CCCC(C)(C)C2[C@@H]1OC3=O (stereo partly shown)
[1]
  IC50: 30 µM

## CC(C)=CCCC1(C)C=Cc2c(O)c3c(c(CC=C(C)C)c2O1)OC12C(CC4CC1C(C)(C)OC2(C/C=C(/C)C(=O)O)C4C)C3=O (stereo not shown)
[1]
  IC50: 10 µM

## COc1cc2c(C(=O)c3ccccc3)c3c4c(cc(OC)c(OC)c4c2cc1OC)CCN3C
[1]
  IC50: 7 to 20 µM

## COc1cc2c(C=O)c3c4c(cc(OC)c(OC)c4c2cc1OC)CCN3C
[1]
  IC50: 1 to 3 µM

## O=C1c2ccccc2-n2c1nc1ccccc1c2=O
[1]
  IC50: 15 µM

## CC(C)=CC[C@@H](O)C1=CC(=O)c2c(O)ccc(O)c2C1=O
[1]
  IC50: 75 µM

## CC1=C(C2=C(C)C(=O)c3c(c(C=O)c(O)c(O)c3C(C)C)C2=O)C(=O)C2=C(C1=O)C(C(C)C)C(O)C(O)C2C=O (stereo not shown)
[1]
  IC50: 6 µM

## COc1cc(/C=C/C(=O)N2CCC=CC2=O)cc(OC)c1OC [Piplartine]
read-out: IC50 luciferase refolding, two-hour incubation, vs DMSO control, triplicate, repeated three times
  IC50: 80 µM
